Yeast mating assay 1: variants of the scFv Ab-14

The target is the same throughout: PDVDLGDISGINAS, from the HR2 region of SARS-CoV-2 spike.

Parent: Ab-14, a human scFv built as VH, a 15-residue (Gly4Ser)3 linker, VL. Only the CDRs of the heavy chain vary.
VH: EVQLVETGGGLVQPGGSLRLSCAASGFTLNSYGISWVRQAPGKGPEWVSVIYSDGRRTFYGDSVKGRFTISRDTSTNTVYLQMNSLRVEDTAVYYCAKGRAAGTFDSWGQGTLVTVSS
VL: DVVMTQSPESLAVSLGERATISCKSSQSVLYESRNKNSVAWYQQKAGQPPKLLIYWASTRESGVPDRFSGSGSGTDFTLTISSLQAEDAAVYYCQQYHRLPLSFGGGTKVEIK

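The parent was found by panning a naive human phage display library on the peptide. Variants in AAYL49 differ from the parent at up to three CDR positions; double and triple changes were sampled at random. AlphaSeq pools MATa yeast showing the antibodies with MATalpha yeast showing the peptide. Mating (16 h, 30 °C) was followed by selection of diploids and sequencing of their barcodes. Read counts were normalised to the haploid input and turned into Kd by a linear fit to BCL2-family pairs of known affinity, for each replicate. Mating was done three times.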

Variants are written as CDR1, CDR2 and CDR3 of the heavy chain (limits as in the source). Parent: GFTLNSYGIS, VIYSDGRRTFYGDSVK, GRAAGTFDS.
Affinities are written as log10 Kd with Kd in nM; a lower number is a better binder.
An entry "nd" has no value in the source: the pair was not observed among the diploids in that replicate. This suggests poor binding but is not conclusive.

| # | CDR-H1 | CDR-H2 | CDR-H3 | replicates, log10 nM | signal with controls |
|---|---|---|---|---|---|
| 1 | GFTLNSYGIS | VVYSDERRTFYGDSVK | GRAYGTFDS | nd / nd / nd | 1 of 9 (2.25) |
| 2 | GFTLNSYGIS | VIYSDGVRTFYGDSVK | GRAAGAFDS | 0.68 / 0.87 / 0.78 | 0 of 9 |
| 3 | GFTLNRYGNS | VIYSDGRRTFYGDSVK | GRAHGTFDS | nd / nd / nd | 2 of 9 (3.31) |
| 4 | GFTLNSYGIS | VIYSDGQRNFYGDSVK | GRAKGTFDS | 2.07 / 1.68 / 1.76 | 2 of 9 (3.82) |
| 5 | GFTLNSYGIS | VIYSDGASTFYGDDVK | GRAAGTFDS | 5.88 / nd / nd | 3 of 9 (3.95) |
| 6 | GFTLNSYGAS | VIYSDGRRTFYGDSVK | GRAAGHFVS | 2.52 / 3.31 / 2.01 | 0 of 9 |
| 7 | GFTLNSYGIS | VKYSDGRRHFYGDSVK | GRAAGNFDS | nd / nd / nd | 3 of 9 (4.30) |
| 8 | GFTLNSYGIS | VIYSDGRRTFYGDSVK | MRAAGTFFS | nd / nd / 4.04 | 0 of 9 |
| 9 | GFTLNSYGIS | VIYSDGRRTFYGTSVK | KRAAGTFDS | 4.46 / nd / nd | 3 of 9 (3.71) |
| 10 | GFTLNSTGIS | VIYSDGRRTFWGDSVK | GFAAGTFDS | nd / nd / nd | 1 of 9 (4.05) |
| 11 | WFTLHSYGIS | VPYSDGRRTFYGDSVK | GRAAGTFDS | 5.10 / 3.42 / nd | 3 of 9 (3.83) |
| 12 | GFTLNSKGIS | QIYSDGRRTFYGDWVK | GRAAGTFDS | nd / nd / nd | 0 of 9 |
| 13 | GFTLYSYGIS | VIVSDGRRTFYGDSVK | GRAAYTFDS | nd / 4.73 / nd | 0 of 9 |
| 14 | GFTLNVYGIS | VIYSDGRRTFYGDSVH | GEAAGTFDS | nd / nd / nd | 2 of 9 (4.53) |
| 15 | GFTLNSEGIS | VIYVDGRRTFYHDSVK | GRAAGTFDS | 3.14 / 1.66 / 1.77 | 0 of 9 |
| 16 | GFTLNSYGIS | VRYSDGRRTFRGDSVK | GRAAGKFDS | nd / nd / nd | 3 of 9 (3.47) |
| 17 | GFTLNSYKIS | VIYSDGERTFYGDSVK | GRAAGSFDS | nd / nd / nd | 1 of 9 (4.64) |
| 18 | GFTLNSSGIS | VIYSDGRRTFYGTSVK | GRAIGTFDS | nd / nd / 4.08 | 0 of 9 |
| 19 | GFSLNSYIIS | VIYSPGRRTFYGDSVK | GRAAGTFDS | nd / nd / nd | 4 of 9 (3.92) |
| 20 | GFTLNSYGIS | VIYSRGRRTAYGDSVK | GFAAGTFDS | nd / nd / 5.97 | 4 of 9 (4.49) |
| 21 | GFTPNSQGIS | VRYSDGRRTFYGDSVK | GRAAGTFDS | nd / nd / nd | 1 of 9 (3.56) |
| 22 | GFTLNLYGIS | VIYSDGRRTFYGDSTW | GRAAGTFDS | nd / nd / nd | 2 of 9 (3.90) |
| 23 | GFTFNSYGPS | VIFSDGRRTFYGDSVK | GRAAGTFDS | nd / nd / nd | 2 of 9 (3.75) |
| 24 | GFTLNSYGIS | VIYSDGRRNFYGDSVK | RRAAGTFDN | nd / nd / nd | 0 of 9 |
| 25 | GFTLNSYGIS | VIYSDGRRTFYGDSYK | ERAAGTSDS | 2.70 / 2.68 / 2.19 | 0 of 9 |
| 26 | GFTLNRYGIS | VIFSDGRRTFTGDSVK | GRAAGTFDS | 4.60 / 3.51 / nd | 0 of 9 |
| 27 | GFTLNSYGTS | VEYSDGRRTFAGDSVK | GRAAGTFDS | nd / nd / nd | 0 of 9 |
| 28 | GFTLNSWNIS | VIYSSGRRTFYGDSVK | GRAAGTFDS | nd / nd / 2.90 | 1 of 9 (2.94) |
| 29 | GFTLNSYGIS | VIYSDGRRTMYGGSVK | GSAAGTFDS | 1.40 / 2.79 / 1.44 | 0 of 9 |
| 30 | GFTLNSYGIS | VINSHGCRTFYGDSVK | GRAAGTFDS | nd / nd / nd | 2 of 9 (3.32) |
| 31 | NFELNSYGIS | VIYSDGRRTEYGDSVK | GRAAGTFDS | 3.21 / 2.84 / 2.63 | 5 of 9 (3.73) |
| 32 | GFTLNSYGIS | VIYSDGKRTFYGDKVK | GRAAGTFDS | 0.83 / 0.94 / 0.68 | 1 of 9 (5.07) |
| 33 | GFTLNSYGIS | VIYSHGRRTFYDDSVK | GRAAGTFDS | nd / nd / nd | 3 of 9 (3.62) |
| 34 | GFTLNSYGIS | VIYSDGRRTFYGDSFH | GRGAGTFDS | nd / nd / nd | 0 of 9 |
| 35 | GFTLNSLGIS | VRYSDGRRTFYGDSVK | GRAAGTEDS | nd / nd / nd | 0 of 9 |

Repeated from above, the 2 best binders with a signal in all replicates:

| CDR-H1 | CDR-H2 | CDR-H3 | replicates, log10 nM | signal with controls |
|---|---|---|---|---|
| GFTLNSYGIS | VIYSDGVRTFYGDSVK | GRAAGAFDS | 0.68 / 0.87 / 0.78 | 0 of 9 |
| GFTLNSYGIS | VIYSDGKRTFYGDKVK | GRAAGTFDS | 0.83 / 0.94 / 0.68 | 1 of 9 (5.07) |

In this assay the parent's reference entry averaged 0.65; its copy inside this library read 4.11 (one replicate of three).
Three control strains display no target. For library AAYL49, 15% of the pairings with them gave a signal, with a median of 4.06 and one signal in twenty below 2.83, so weak values seen in few replicates may be background. The control count says in how many pairings with the empty strains this scFv gave a signal, with their mean in brackets.

Values reported by Engelhart et al. 2022, doi:10.1038/s41597-022-01779-4 (FLAb copy).